Entries after “also recorded” stand apart in the source; their conditions may differ.
Tests used:
[1] = test system: A549 alveolar epithelial cells infected with R. delemar spores; test: Measurement of host cell endocytosis of R. delemar by A549 cells (Uvitex differential fluorescence); assay type: cell-based, human; settings: for endocytosis following antibody pre-treatment: A549 cells, R. delemar, antibodies to extracellular domain of EGFR or ErbB2
Experimental: Measurement of host cell endocytosis. 12-mm glass coverslips were seeded with A549 alveolar epithelial cells. Cells were then pre-treated for 1 h with Gefitinib (25 μM) or Cetuximab (25 μg/ml). For controls, host cells will be incubated with DMSO (the solvent used to reconstitute the inhibitor) or 25 μg/ml mouse IgG antibody in parallel. Host cells were then infected with 2×10^5 R. delemar spores. After incubation for 3 h, cells were fixed in 3% paraformaldehyde and stained for 1 h with 1% Uvitex, which specifically binds to chitin in the fungal cell wall. After washing with PBS, coverslips were mounted on a glass slide with a drop of ProLong Gold anti-fade reagent (Molecular Probes) and sealed. The total number of cell-associated organisms (i.e. fungi adhering to the monolayer) per high-powered field were determined by phase-contrast microscopy. The same field will be examined by epifluorescence microscopy, and the number of brightly fluorescent, uninternalized fungi were determined. The number of endocytosed organisms was calculated by subtracting the number of fluorescent fungi from the total number of visible fungi. At least 400 organisms were counted per treatment group in at least 15 different fields per coverslip. Experiments were performed in duplicate or triplicate on at least two separate days.
12-mm glass coverslips in 12 well dishes will be seeded with A549 alveolar epithelial cells. Cells were then pre-treated 1 h with inhibitors. For controls, host cells were incubated with the appropriate amount of diluent used to reconstitute the inhibitor in parallel. Host cells were then infected with 2×10^6 Rdelemar. After incubation for 3 h, cells were fixed in 3% paraformaldehyde and stained for 1 h with 1% Uvitex, which specifically binds to chitin in the fungal cell wall. After washing with PBS, coverslips were mounted on a glass slide with a drop of ProLong Gold anti-fade reagent (Molecular Probes) and sealed. The total number of cell-associated organisms (i.e., fungi adhering to the monolayer) per high-powered field was determined by phase-contrast microscopy. The same exact field was examined by epifluorescence microscopy, and the number of brightly fluorescent, uninternalized fungi will be determined. The number of endocytosed organisms is calculated by subtracting the number of fluorescent organisms from the total number of visible organisms. At least 400 organisms were counted in at least 15 different fields per coverslip. Experiments were performed in duplicate on separate days. Data will be expressed as median f interquartile range.

[2] = test system: A549 cells infected with R. delemar; test: R. delemar-induced A549 cell damage (Pierce LDH assay); assay type: cell-based, human; settings: for damage following antibody pre-treatment: A549 cells, R. delemar, antibodies to extracellular domain of EGFR or ErbB2
Experimental: Measurement of R. delemar-induced host cell damage. R. delemar-induced A549 cell damage was quantified using the Pierce LDH Assay with slight modifications to the manufacturer's protocol. Briefly, A549 cells were grown in 96-well tissue culture plates for 18-24 hours. […] For controls, host cells will be incubated with DMSO (the solvent used to reconstitute the inhibitor) or 25 μg/ml of mouse IgG antibody in parallel. After 24 hours of incubation at 37° C., 50 μl of the cell culture supernatant was collected from uninfected, infected, and fungi-only control wells and transferred to a 96 well plate to assay for LDH activity. Lysis buffer was added to all infected wells and incubated for 45 min at 37° C. After lysis, 50 μl of cell culture supernatant was transferred to a 96 well plate and used for the LDH Assay Kit per protocol. LDH release was calculated as follows: % Cytotoxicity=[Experimental release−Fungal Cells Spontaneous Control−Host Cells Spontaneous Control]/[Host Cell Maximum Control−Fungal Cells Maximum Control−Host Cells Spontaneous Control]×100. LDH is a cytosolic enzyme but will be released into the cell culture medium upon cell membrane damage. The amount of extracellular LDH is proportional to the amount of cell damage.
R. delemar-induced A549 cell damage was quantified using the Pierce LDH assay, with slight modifications to the manufacturer's protocol. Briefly, A549 cells were grown in 96-well tissue culture plates for 18 to 24 h. Cells were then pretreated for 1 h with inhibitor and infected with 1×10^6-2×10^6 germlings suspended in 150 μl F-12K plus 10% FBS. For controls, host cells were incubated with the appropriate amount of diluent used to reconstitute the in parallel. After 24 h of incubation at 37° C., 50 μl of the cell culture supernatant was collected from uninfected, infected, and fungus-only control wells and transferred to a 96-well plate to assay for LDH activity. Lysis buffer was added to all infected wells, and the mixture was incubated for 45 min at 37° C. After lysis, 50 μl of cell culture supernatant was transferred to a 96-well plate and used for the LDH assay kit per the protocol. LDH release was calculated as follows: % cytotoxicity=[(experimental release−fungal cell spontaneous control−host cell spontaneous control)/(host cell maximum control−fungal cell maximum control−host cell spontaneous control)]×100. LDH is a cytosolic enzyme but will be released into the cell culture medium upon cell membrane damage. The amount of extracellular LDH is proportional to the amount of cell damage.

[3] = test system: R. delemar; test: Growth / germination of R. delemar in the absence of host cells; assay type: cell-based
[4] = test system: Rhizopus; test: Rhizopus infection in vitro (FIG. 24); assay type: cell-based
[5] = spore preparations pre-treated with drug prior to the infection

Cetuximab
endocytosis of R. delemar spores ([1]; A549 cells pretreated 1 h with 25 μM Gefitinib or 25 μg/ml Cetuximab, 3 h infection, vs vehicle or IgG1 control antibody): significantly reduced; also recorded: did not completely block | endocytosis following antibody pre-treatment [1]: significant reduction | endocytosis after pre-treatment of R. delemar spore preparations [1, 5]: did not reduce | R. delemar-induced damage of A549 cells (LDH assay) ([2]; A549 cells pretreated 1 h with 25 μM Gefitinib or 25 μg/ml Cetuximab, 24 h infection, vs vehicle or IgG1 control antibody): significantly reduced | damage following antibody pre-treatment [2]: significant reduction | host cell damage after pre-treatment of R. delemar spore preparations [2, 5]: did not reduce | R. delemar mycelial growth [3]: no effect

Trastuzumab
endocytosis following antibody pre-treatment [1]: significant reduction | damage following antibody pre-treatment [2]: significant reduction | Rhizopus infection in vitro [4]: inhibits

Reference: US20210284742A1, “METHODS OF TREATING OR PREVENTING MUCORMYCOSIS” (University of Maryland, Baltimore, priority 2018, published 2021)
